How the values were obtained:
[1] = target: MCL1 protein / biotinylated BIM BH3 peptide in RKO cells (Homo sapiens (Human), UniProt Q07820); test: PIxEL: protein-protein interaction in permeabilized cells by ELISA (Assay 5); type: cell-based; conditions: read-out: PIxEL IC50 (median)
Description: PIxEL: Protein-Protein Interaction in Permeabilized Cells by ELISA
Most MCL1 protein molecules are localized at the mitochondria outer membrane and sequester pro-apoptotic proteins through binding of their BCL2 homology domain 3 (BH3 domain). MEB buffer (150 mM mannitol, 10 mM HEPES pH 7.5, 50 mM KCl, 20 μM EDTA, 20 μM EGTA, 5 mM potassium succinate, 0.1% protease-free BSA (SIGMA) with low dose digitonin (0.002%) permeabilizes plasma membrane while leaves live mitochondria, where MCL1 maintains its native localization and conformation. Unlike biophysical assays (e.g. TR-FRET) that use truncated recombinant MCL1 protein, this assay uses full length endogenous MCL1 protein at mitochondria outer membrane. It measures the interaction between MCL1 protein and biotinylated BIM BH3 peptide. Compounds can compete with BIM BH3 peptide to bind to MCL1 protein.
On day 1, RKO colon cancer cell line cells were plated at 0.8 million cells/ml, 100 μl/well in 96-well flat bottom TC plates (Corning). […]
On the third day, ELISA plates were washed once with 250 μl 1×PBST. […] Plates were shaken for 1 minute then luminescence was measured by Envision plate reader (HP). […] IC50 was calculated using Graphic Pad PRISM software.

Chains of the proteins cited; added tags and fusions are not shown.
UniProt Q07820, whole entry: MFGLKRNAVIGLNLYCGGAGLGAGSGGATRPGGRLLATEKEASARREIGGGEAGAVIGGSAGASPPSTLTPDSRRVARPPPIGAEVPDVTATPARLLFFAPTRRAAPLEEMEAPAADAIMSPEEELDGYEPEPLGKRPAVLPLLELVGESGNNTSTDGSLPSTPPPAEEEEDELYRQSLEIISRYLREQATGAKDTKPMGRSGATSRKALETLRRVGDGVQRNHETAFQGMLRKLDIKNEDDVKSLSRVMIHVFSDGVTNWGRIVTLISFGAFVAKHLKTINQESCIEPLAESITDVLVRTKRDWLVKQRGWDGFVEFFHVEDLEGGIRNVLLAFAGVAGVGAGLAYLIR
UniProt Q07820, whole entry K194A/K197A/R201A, looked up: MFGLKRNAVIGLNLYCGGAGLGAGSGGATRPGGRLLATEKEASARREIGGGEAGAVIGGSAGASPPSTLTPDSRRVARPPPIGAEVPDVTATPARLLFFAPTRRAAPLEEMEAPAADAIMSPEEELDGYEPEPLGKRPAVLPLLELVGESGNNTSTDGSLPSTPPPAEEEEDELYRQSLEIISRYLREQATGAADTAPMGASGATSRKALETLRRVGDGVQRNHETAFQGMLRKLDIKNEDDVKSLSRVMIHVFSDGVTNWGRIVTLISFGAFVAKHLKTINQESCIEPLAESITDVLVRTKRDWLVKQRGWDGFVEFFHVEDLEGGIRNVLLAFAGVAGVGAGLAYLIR

MCL-1 = MCL-1 (Homo sapiens (Human), UniProt Q07820, K194A/K197A/R201A); test: Protein-compound interaction assay (SPR assay, Assay 9); type: binding; conditions: 25° C., read-out: KD (geometric mean)
Source text: Assay 9 Protein-Compound Interaction Assay (SPR Assay)
The ability of the compounds described in this invention to bind to MCL-1 may be determined using surface plasmon resonance (SPR). This allows for the quantification of binding in terms of the equilibrium dissociation constant (KD [M]), as well as association and dissociation rate constants (kon [1/Ms] and koff [1/s], respectively). The measurements may be performed using Biacore® T200 or Biacore® S200 instruments (GE Healthcare).
Briefly, carboxymethylated dextran biosensor chips (Series S Sensor Chip CMS, GE Healthcare) were activated with 1-ethyl-3-(3-dimethylaminopropyl)-carbodiimide hydrochloride (EDC) and N-hydroxysuccinimide (NHS) according to the supplier's instructions. MBP-MCL-1 was diluted in 1×PBS-P+ (GE Healthcare) and injected on the activated chip surface. Subsequently, a solution of 1 M ethanolamine-HCl (GE Healthcare) was injected to block unreacted groups, resulting in approximately 400-2500 response units (RU) of immobilized protein. A reference surface was generated by treatment with NHS-EDC and ethanolamine-HCl. […] Compounds were injected for 60 s followed by a dissociation time of up to 1000 s. […]

IC50 [1] | Kd (MCL-1) | SMILES
49.4 nM |  | CCc1c2c(nn1C)C(CCN1CCOCC1)OCC(F)(F)CCn1c(C(=O)O)c(CCCOc3cccc4cc(F)ccc34)c3ccc(Cl)c-2c31 (centres unmarked) [Example 86, 4-chloro-3-ethyl-12,12-difluoro-7-{3-[(6-fluoronaphthalen-1-yl)oxy]propyl}-2-methyl-15-[2-(morpholin-4-yl)ethyl]-2,10,11,12,13,15-hexahydropyrazolo[4′,3′:9,10][1,6]oxazacycloundecino[8,7,6-hi]indole-8-carboxylic Acid]
 | 0.57 nM | CCc1c2c(nn1C)C(CCN1CCOCC1)OCC(F)(F)CCn1c(C(=O)O)c(CCCOc3cccc4cc(F)ccc34)c3ccc(Cl)c-2c31 (single isomer, unassigned; (+)) [Example 90, (+)-4-chloro-3-ethyl-12,12-difluoro-7-{3-[(6-fluoronaphthalen-1-yl)oxy]propyl}-2-methyl-15-[2-(morpholin-4-yl)ethyl]-2,10,11,12,13,15-hexahydropyrazolo[4′,3′:9,10][1,6]oxazacycloundecino[8,7,6-hi]indole-8-carboxylic Acid]

From US11440923B2, “Substituted macrocyclic indole derivatives” (Bayer Aktiengesellschaft, priority 2017, dated 2022)
